According to patent publication US20070059311A1, “Regulation of the hedgehog signaling pathway and uses thereof” (priority 2005, published 2007):
Entries after “also recorded” stand apart in the source; their conditions may differ.

Key:
Huh7 cells = experiment: MTT cell growth assay; conditions: KAAD-cyclopamine 2.5 μM
HepG2 = experiment: MTT cell growth assay; conditions: KAAD-cyclopamine 2.5 μM

## KAAD-cyclopamine
Huh7 cells
  cell growth (MTT assay): inhibited; also recorded: inhibition
HepG2
  cell growth (MTT assay): not affected and not
